One substance from patent publication US10869929B2, “Phosphonate linkers and their use to facilitate cellular retention of compounds” (priority 2016, dated 2020) can be followed below.

Chains of the proteins cited; added tags and fusions are not shown. Lines headed by an entry give the natural chain unless they say otherwise; changes in a name come on top.
UniProt P04150: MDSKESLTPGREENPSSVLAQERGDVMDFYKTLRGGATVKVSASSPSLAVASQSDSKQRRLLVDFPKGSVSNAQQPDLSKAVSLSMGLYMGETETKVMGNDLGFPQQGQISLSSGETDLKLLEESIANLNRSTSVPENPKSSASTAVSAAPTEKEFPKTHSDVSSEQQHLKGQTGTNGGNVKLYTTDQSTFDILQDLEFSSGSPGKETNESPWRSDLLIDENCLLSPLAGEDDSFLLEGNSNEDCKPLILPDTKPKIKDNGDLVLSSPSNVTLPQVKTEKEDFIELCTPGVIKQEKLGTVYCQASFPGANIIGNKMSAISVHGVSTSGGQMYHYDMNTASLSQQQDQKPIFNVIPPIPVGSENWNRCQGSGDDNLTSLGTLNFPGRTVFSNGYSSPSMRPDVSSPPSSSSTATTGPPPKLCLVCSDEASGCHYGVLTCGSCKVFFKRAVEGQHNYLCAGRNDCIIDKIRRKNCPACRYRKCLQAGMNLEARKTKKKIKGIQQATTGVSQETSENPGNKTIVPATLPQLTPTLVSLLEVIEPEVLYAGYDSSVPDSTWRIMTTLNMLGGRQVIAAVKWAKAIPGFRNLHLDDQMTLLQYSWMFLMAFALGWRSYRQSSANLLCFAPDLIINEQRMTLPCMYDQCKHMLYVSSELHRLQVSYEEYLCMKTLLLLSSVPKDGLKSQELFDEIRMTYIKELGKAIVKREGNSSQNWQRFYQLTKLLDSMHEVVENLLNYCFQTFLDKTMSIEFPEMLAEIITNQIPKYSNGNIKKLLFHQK

In series [1] the target is glucocorticoid receptor (Homo sapiens (Human), UniProt P04150). In words: PolarScreen Glucocorticoid Receptor Competitor Assay (GR binding). The settings on record: fluormone GS red, GR full length protein; read-out: GR Bind IC50.
Series [2] concerns MDCKII cells. The series can be described thus: Apparent permeability in MDCKII cells. The settings on record: 1 μM, t=3 hr, average of A to B and B to A Papp.

The term IC50 denotes the concentration needed to halve the response being measured.

“(6-(3-((3aR,4aS,4bS,11aR,11bS,12S,13aS,13bS)-12-hydroxy-13b-(2-hydroxyacetyl)-11a,13a-dimethyl-2-propyl-4,4a,5,6,11,11a,11b,12,13,13a-decahydro-[1,3]dioxolo[4″,5″:3′,4′]cyclopenta[1′,2′:5,6]naphtho[1,2-f]indazol-8 (3aH,4bH,13bH)-yl)phenoxy)hexyl)phosphonic acid [Compound 27]”: the IC50 in series [1] turned out to be 2 nM. In series [2], the “MDCK Permeability (cm × 10−6/sec)” value is 1.8 cm × 10−6/sec.
